# Antibody variant affinities, Ab-14 heavy chain, assay B

Values reported by Li et al. 2023, doi:10.1038/s41467-023-39022-2 (FLAb copy).

The target is the same throughout: PDVDLGDISGINAS, from the HR2 region of SARS-CoV-2 spike.

Parent: Ab-14, a human scFv built as VH, the linker GGGGSGGGGSGGGGS, VL. Only the CDRs of the heavy chain vary.
VH: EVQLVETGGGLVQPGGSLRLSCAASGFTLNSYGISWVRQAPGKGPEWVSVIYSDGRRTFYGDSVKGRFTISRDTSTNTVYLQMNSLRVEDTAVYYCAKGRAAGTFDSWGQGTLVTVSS
VL: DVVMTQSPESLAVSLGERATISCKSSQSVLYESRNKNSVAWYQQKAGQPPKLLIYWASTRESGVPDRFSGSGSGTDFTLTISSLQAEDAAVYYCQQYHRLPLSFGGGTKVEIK

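The starting antibody came from a phage panning campaign against this peptide. This is the validation round: designs drawn from the data on random variants, tested in the same kind of assay. Several design methods are mixed in this list. The scFvs were displayed on barcoded MATa yeast, the peptide on MATalpha yeast. Binding brings cells together so that they mate, and sequencing counts the barcode pairs among the diploids. A regression on co-assayed BCL2-family reference pairs converts the normalised counts of each replicate to an apparent Kd. Mating was done six times.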

Sequences are complete VH domains. This list holds designs with more than six substitutions. The Kd shown is the geometric mean over detected replicates; a lower Kd is a better binder. "nd" means that the variant was in the library but no mating with the target was seen in any replicate; the authors take this as a sign of poor binding, and no number exists. The range of this assay differs from that of the first round, and the authors advise against merging the two.

Variant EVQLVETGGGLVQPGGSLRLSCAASGFDLDEYGISWVRQAPGKGPEWVSVIYADGSRTAYADSVKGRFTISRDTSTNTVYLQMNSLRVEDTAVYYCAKGEVAGTFDVWGQGTLVTVSS showed 1.3 nM (6 of 6 replicates). Variant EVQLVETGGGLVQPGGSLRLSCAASGEDLLEIGISWVRQAPGKGPEWVSVIYADGKRVAYTNAVKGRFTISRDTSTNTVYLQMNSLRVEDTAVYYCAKGNEAGVFTLWGQGTLVTVSS gave nd (0 of 6 replicates). Variant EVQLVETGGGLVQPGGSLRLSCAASGFDLNEYGISWVRQAPGKGPEWVSVIYADGKRTAYADSVKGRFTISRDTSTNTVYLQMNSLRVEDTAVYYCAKGENAGTFVQWGQGTLVTVSS showed 66 nM (4 of 6 replicates). With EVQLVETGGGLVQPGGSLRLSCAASGFDLAEYGISWVRQAPGKGPEWVSVIYADGQRKSYANKFKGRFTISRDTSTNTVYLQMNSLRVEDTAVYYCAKGRLSGTNIMWGQGTLVTVSS the result was nd (0 of 6 replicates). Variant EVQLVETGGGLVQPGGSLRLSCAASGFVLSEYGISWVRQAPGKGPEWVSVIYADGNRTFYAPNVKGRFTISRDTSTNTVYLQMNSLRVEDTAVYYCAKGQFNDVLNMWGQGTLVTVSS showed nd (0 of 6 replicates). For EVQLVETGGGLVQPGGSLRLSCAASGFDVEKYGISWVRQAPGKGPEWVSVIYADGYRSAYTSNVKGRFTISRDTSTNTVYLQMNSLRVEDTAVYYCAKGGEAGTFHVWGQGTLVTVSS, the assay gave nd (0 of 6 replicates).

With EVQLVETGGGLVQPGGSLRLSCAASGQDLNEYGISWVRQAPGKGPEWVSVIYADGLRTAYTNNVKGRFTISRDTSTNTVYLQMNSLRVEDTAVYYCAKGNQSGFDSGWGQGTLVTVSS the result was nd (0 of 6 replicates). With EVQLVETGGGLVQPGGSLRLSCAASGFDLNEYGISWVRQAPGKGPEWVSVIYADGRRTFYTDSVKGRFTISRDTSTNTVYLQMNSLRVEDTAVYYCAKGEQAGTFDQWGQGTLVTVSS the result was 1.0 nM (6 of 6 replicates). Variant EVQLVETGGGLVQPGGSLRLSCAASGTTVLSYGISWVRQAPGKGPEWVSVIYSDGRRTFYIDKVKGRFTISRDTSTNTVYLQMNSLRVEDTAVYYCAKGQAAGTFDVWGQGTLVTVSS gave nd (0 of 6 replicates). Variant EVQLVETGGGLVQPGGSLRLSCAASGFDLNEYGISWVRQAPGKGPEWVSVIYADGVRTAYAESVKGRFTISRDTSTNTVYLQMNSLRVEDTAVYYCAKGQNAGTFDVWGQGTLVTVSS gave nd (0 of 6 replicates). For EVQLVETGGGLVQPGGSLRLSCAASGFNLDEYGISWVRQAPGKGPEWVSVIYADGIRTQYKDQVKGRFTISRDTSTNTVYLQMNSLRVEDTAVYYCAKGGGKMHNLTWGQGTLVTVSS, the assay gave 300 nM (1 of 6 replicates). Variant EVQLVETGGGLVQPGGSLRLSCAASGFDLNEYGISWVRQAPGKGPEWVSVIYADGMRTFYTDSVKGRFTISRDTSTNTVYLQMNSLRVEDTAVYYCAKGANAGTFDSWGQGTLVTVSS gave 520 pM (6 of 6 replicates).

With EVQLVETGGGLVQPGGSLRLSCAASGFDLNEYGISWVRQAPGKGPEWVSVIYADGMRTAYSDSVKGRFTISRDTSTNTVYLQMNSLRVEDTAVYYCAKGNIAGTFDVWGQGTLVTVSS the result was 330 pM (6 of 6 replicates). For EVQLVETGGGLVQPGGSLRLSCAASGFDLNEYGISWVRQAPGKGPEWVSVIYADGMRTAYSDDVKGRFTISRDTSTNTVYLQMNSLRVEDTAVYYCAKGETAGTFDIWGQGTLVTVSS, the assay gave 510 pM (6 of 6 replicates). Variant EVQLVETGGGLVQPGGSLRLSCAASGFDLEEYGVSWVRQAPGKGPEWVSVIYADGMRSQYIDAVKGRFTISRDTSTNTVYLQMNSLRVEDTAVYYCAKGIIVDNVITWGQGTLVTVSS gave nd (0 of 6 replicates). Variant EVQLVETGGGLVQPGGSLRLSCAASGFDLNEYGISWVRQAPGKGPEWVSVIYADGQRTAYIDSVKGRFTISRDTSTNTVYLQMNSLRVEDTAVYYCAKGNVAGTFDVWGQGTLVTVSS gave 170 pM (6 of 6 replicates). For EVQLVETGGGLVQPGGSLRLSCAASGFDLNEYGISWVRQAPGKGPEWVSVIYADGMRTAYADKVKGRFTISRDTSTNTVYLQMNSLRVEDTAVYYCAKGNVAGTFDVWGQGTLVTVSS, the assay gave 340 pM (6 of 6 replicates). For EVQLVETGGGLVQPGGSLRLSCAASGFDLNEYGISWVRQAPGKGPEWVSVIYADGQRTAYSDSVKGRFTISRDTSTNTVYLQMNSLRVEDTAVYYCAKGNVAGTFDMWGQGTLVTVSS, the assay gave 390 pM (6 of 6 replicates).

Variant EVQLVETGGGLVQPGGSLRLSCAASGFDLNEYGISWVRQAPGKGPEWVSVIYADGRRTAYTDSVKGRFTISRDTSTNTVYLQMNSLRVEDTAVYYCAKGNNAGTFDIWGQGTLVTVSS showed 240 pM (6 of 6 replicates). With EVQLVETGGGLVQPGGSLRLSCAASGFSLDEYGISWVRQAPGKGPEWVSVIYADGARAAYTNDFKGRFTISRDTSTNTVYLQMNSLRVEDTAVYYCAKGNIGDLFGKWGQGTLVTVSS the result was nd (0 of 6 replicates).

The first 2 variants above that were never detected:

Variant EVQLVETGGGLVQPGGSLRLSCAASGEDLLEIGISWVRQAPGKGPEWVSVIYADGKRVAYTNAVKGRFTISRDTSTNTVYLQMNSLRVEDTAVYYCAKGNEAGVFTLWGQGTLVTVSS showed nd (0 of 6 replicates).
Variant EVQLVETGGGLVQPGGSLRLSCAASGFDLAEYGISWVRQAPGKGPEWVSVIYADGQRKSYANKFKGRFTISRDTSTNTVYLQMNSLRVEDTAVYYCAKGRLSGTNIMWGQGTLVTVSS showed nd (0 of 6 replicates).

The parent sequence was in this pool as ten entries: three were never detected, three once, and four in most replicates, with averages from 2.2 nM to 240 nM. Empty control strains, which show no peptide, gave a signal in 1% of pairings with all heavy chain designs; the median was 120 nM and 95% of these signals were weaker than 7.0 nM. No background was subtracted. In the paper, a design with two or fewer of six values counts as a poor binder.